Source: PubChem (National Center for Advancing Translational Sciences (NCATS))
Lamin A splicing = changes lamin A minigene splicing in HeLa cells. HeLa LMNA splicing GFP/RFP minigene ratio, 48 h. Potency, µM (titrated, usually from 46.1 µM), for the others: top-dose ratio change, negative = inhibition, most hits filed as inhibitors. hit rate 0.01% among 200,000. AID 1487; active means well fitted inhibition curve with a large enough effect in the signal ratio, with a control signal flat, not every such curve was filed as active; inconclusive means small, poorly fitted or top-dose-only effect, or effect the other way, or a change in a side signal; the % refers to the signal ratio; further: potency means the concentration at half of the fitted maximal effect; on the % scale 0 is the no-effect control and ±100 the full control effect
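S3 HeLa cells stably expressing lamin A-EGFP splicing minigene plus DsRed2, 600 cells/well, 48 h compound exposure at 37C. Laser-scanning cytometry; analysed as GFP (500-530 nm)/RFP (575-640 nm) total intensity ratio; 0.5% DMSO vehicle.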
miR-21 FLuc = miR-21 reporter, rising signal | AID 2288 | HeLa miR-21 FLuc reporter, luciferase, 48 h | 340,000 tested, under 10 active | Potency, µM (titrated, usually from 38.3 µM), for the others: at the top dose reporter change, positive = more light; active = well fitted rising curve with a large enough effect; inconclusive = small, poorly fitted or top-dose-only effect; inactive = no such curve, though single readings can be large or run the other way;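 also: % of control where 0% means no effect; miR-21 action dims this reporter so a rising signal means less miR-21 action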
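Compounds were titrated across several concentrations (up to approximately 40 uM) and incubated 48 hours with HeLa miR-21-FLuc reporter cells (miR-21 target sequence downstream of FLuc, endogenous miR-21). Readout was firefly luciferase luminescence after lytic detection reagent.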
Sfp inh = qHTS Assay for Inhibitors of Bacillus subtilis Sfp phosphopantetheinyl transferase (PPTase); 4'-phosphopantetheinyl transferase ffp (Bacillus subtilis), Q9F4F7; Biochemical Sfp PPTase activity, qHTS; Potency, µM, for inactives: max response, negative = inhibition, most hits filed as inhibitors; hit rate 3.5% among 310,000; AID 1490, 2009; active = well fitted inhibition curve with a large enough effect; inconclusive = small, poorly fitted or top-dose-only effect, or another doubt; inactive = no such curve, though single readings can be large or run the other way;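 also: the enzyme is Sfp with the accession as filed and its product quenches rhodamine fluorescence; potency is read from the fitted curve at half-maximal effect; 0% = enzyme reaction without inhibitor and -100% = no enzyme wells; top concentration of the series not given in the record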
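After 15 min at room temperature with compound, 15 nM Sfp received 5 uM rhodamine-CoA plus 12.5 uM BHQ-2-ybbR (50 mM Hepes pH 7.6, 10 mM MgCl2). Rate came from the fluorescence difference over 30 min, ex 525/em 598 nm.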
G9a inh = blocks human histone lysine methyltransferase G9a | hit rate 8.8% among 350,000 | Potency, µM (titrated, usually from 102 µM), without a hit: at the highest dose activity, negative = inhibition, most hits filed as inhibitors | Q96KQ7 | G9a H3K9 monomethylation, AlphaScreen, 2 h; further: potency means the concentration at half of the fitted maximal effect; on the % scale 0 is the no-effect control and ±100 the full control effect; nearly all actives have a fitted effect of over 75% in size
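AlphaScreen read-out: biotin-H3K9 peptide (500 nM) methylation by 20 nM enzyme with 20 uM SAM, 2 h at room temperature after 15 min compound preincubation; anti-monomethyl H3K9 antibody plus donor/acceptor beads, 10 min dark.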
ALDH1A1 inh = blocks purified human ALDH1A1 activity. hit rate 7.3% among 220,000. Potency, µM (series often up to 75.3 µM), for inactives: top-dose activity, negative = inhibition, hits mostly inhibitors. AID 1030. Purified ALDH1A1, NADH fluorescence, propionaldehyde substrate; active means well fitted inhibition curve with a large enough effect, not every such curve was filed as active; inconclusive means small, poorly fitted or top-dose-only effect, or another doubt; inactive means no such curve, though single readings can be large or run the other way;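 further: potency means the concentration at half of the fitted maximal effect; plate controls were no enzyme wells and a reference inhibitor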
KDM4E inh = blocks human JMJD2E demethylase activity; AID 2147; JMJD2E catalytic domain, FDH-coupled NADH fluorescence (FDH is formaldehyde dehydrogenase); hit rate 1.6% among 230,000; Potency, µM (top dose mostly 57.1 µM), for the others: at the top dose activity change, negative = inhibition, most hits filed as inhibitors; active means well fitted inhibition curve with a large enough effect, not every such curve was filed as active; inconclusive means small, poorly fitted or top-dose-only effect, or another doubt; inactive means no such curve, though single readings can be large or run the other way;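 further: potency means the concentration at half of the fitted maximal effect; 0% = wells with enzyme and -100% = buffer wells without enzyme; nearly all actives have a fitted effect of over 50% in size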
* = called active by the depositor; ? = inconclusive; nt = no result; ! = repeats disagree; [ ] = remark or other dose. In the library only some 13% were active in any assay of this set; here they are far more common. Unless noted, the call rests on the fitted dose curve; in most records, active means well fitted curve in the direction sought with a large enough effect; inconclusive means small, poorly fitted or top-dose-only effect, or another doubt; inactive means no such curve, though single readings can be large; an effect the other way counts as inactive or inconclusive.

Key to letters: A = Lamin A splicing; B = miR-21 FLuc; C = Sfp inh; D = G9a inh; E = ALDH1A1 inh; F = KDM4E inh
molecule: COc1ccc(CN2C(=O)NC(=O)/C(=C/c3ccc([N+](=O)[O-])o3)C2=O)cc1
  A: nt | B: 0.0% | C: 50.1µM* | D: 7.08µM* | E: 17.8µM* | F: -12.8%
molecule: CC1=CC[C@@H]2[C@@H](C1)c1c(O)cc(CC#CCCCNS(C)(=O)=O)cc1OC2(C)C
  A: nt | B: nt | C: 17.9% | D: nt | E: -7.5% | F: ?
molecule: COC(=O)c1ccccc1N=Cc1c(O)[nH]c(=O)[nH]c1=O
  A: nt | B: -1.0% | C: 2.4% | D: ? | E: nt | F: nt
molecule: CC(N=Cc1c(O)[nH]c(=O)[nH]c1=O)c1ccccc1 (stereo unspecified)
  A: ? | B: 1.0% | C: 9.4% | D: 5.62µM* | E: ? | F: 0.9%
molecule: O=C(COC(=O)Cc1ccccc1)Nc1cc(S(=O)(=O)N2CCCCC2)ccc1Cl
  A: nt | B: nt | C: nt | D: -45.0% | E: nt | F: nt
molecule: CC(C)NC(=O)C(C)N1CCN(S(=O)(=O)c2ccc3ccccc3c2)CC1 (stereo unspecified)
  A: nt | B: 2.9% | C: -28.6% | D: 25.1µM* | E: nt | F: nt
molecule: CCOc1ccc(CCNC(=O)c2cc3c(-c4cccc(OC)c4)nn(C)c3s2)cc1OCC
  A: nt | B: 28.7% | C: nt | D: ? | E: nt | F: nt
molecule: O=c1[nH]c(O)c(/C=C2/C=CC(c3cc(Cl)ccc3Cl)=N2)c(=O)[nH]1
  A: nt | B: 4.4% | C: -19.8% | D: 50.1µM* | E: nt | F: 1.9%
molecule: O=C(Nc1ccc(OC(F)(F)F)cc1)C1CCN(S(=O)(=O)c2cccs2)CC1
  A: nt | B: ? | C: nt | D: 6.7%[59 µM] | E: nt | F: nt
molecule: CCc1ccc(CN2CCN(Cc3cc(Br)ccc3O)CC2)cc1
  A: nt | B: 4.5% | C: ? | D: 25.1µM* | E: -18.8% | F: ?
molecule: CCCCCCCSc1cc(OC)c(CCN(C)C)cc1OC
  A: ? | B: ? | C: 14.1µM* | D: ? | E: 2.2% | F: -13.9%
molecule: CCCCCSc1cc(OC)c(CCN)cc1OC
  A: -5.5% | B: 15.6% | C: ? | D: -13.1%[59 µM] | E: -12.8% | F: 5.3%
molecule: CCOC(=O)c1cccc(NC(=O)c2cnc(N3CCCCC3)c3ccccc23)c1
  A: ? | B: 15.9% | C: nt | D: 22.8%[59 µM] | E: nt | F: nt
molecule: C[C@H]1CCC[C@H](O)CCCCCc2cc(O)cc(O)c2C(=O)O1
  A: ? | B: 27.1% | C: 15.1% | D: 5.9%[59 µM] | E: ? | F: 5.3%
molecule: CC1CC2OC2/C=C\C=C/C(=O)Cc2c(Cl)c(O)cc(O)c2C(=O)O1 (stereo unspecified)
  A: nt | B: nt | C: -7.6% | D: ? | E: 22.4µM* | F: nt
molecule: CN(C)c1ccc(C(=O)c2ccc(N(C)C)cc2)cc1
  A: ? | B: -18.0% | C: 1.8% | D: ? | E: 28.2µM* | F: -6.4%
molecule: Nc1c(C(=O)Nc2ccc([As](=O)(O)O)cc2)cnc2nnnn12
  A: nt | B: nt | C: nt | D: nt | E: -4.1%[13.5 µM] | F: nt
molecule: CCN(CC)c1ccc(NC(=O)c2cccc(C)c2)cc1S(=O)(=O)Nc1ccccc1OC
  A: ? | B: -0.3% | C: 12.6µM* | D: 3.55µM* | E: 14.1µM* | F: ?
molecule: CCOP(=O)(OCC)C(NC(=O)c1cccc(C)c1)C(Cl)(Cl)Cl (stereo unspecified)
  A: nt | B: -2.2% | C: 7.9% | D: nt | E: 2.7% | F: -7.3%
molecule: CC(C)[C@@H](C)/C=C\[C@@H](C)[C@@H]1CC[C@H]2C3=CC=C4C[C@@H](O)CC[C@]4(C)[C@H]3CC[C@]21C
  A: nt | B: nt | C: nt | D: nt | E: -8.2%[13.5 µM] | F: nt
molecule: CN(C)CCC=C1c2ccccc2CCc2ccccc21
  A: ? | B: -0.4% | C: ? | D: -19.7%[59 µM] | E: 17.8µM*! | F: ?
molecule: CN(C)CC/C=C1\c2ccccc2Sc2ccc(Cl)cc21
  A: ? | B: 6.1% | C: ? | D: ? | E: 3.8%[13.5 µM] | F: 1.1%
molecule: CCN1C[C@]2(C)CC[C@H](OC)[C@@]34[C@@H]2[C@H](OC(C)=O)[C@]2(OCO[C@@]25C[C@@H](OC)[C@@H]2C[C@@]3(O)[C@H]5[C@@H]2OC)[C@H]14
  A: 5.7% | B: nt | C: 15.6% | D: 20.3%[21.5 µM] | E: -2.2%[20.9 µM] | F: -1.0%[25.5 µM]
molecule: OCCN(CC#CC(O)(c1ccccc1)C1CCCC1)CCO (stereo unspecified)
  A: -0.3% | B: -5.1% | C: 11.2% | D: 50.1µM* | E: 6.5% | F: -4.0%
molecule: C[n+]1c(-c2ccccc2)cc(CCCCc2cc(-c3ccccc3)[n+](C)c(-c3ccccc3)c2)cc1-c1ccccc1
  A: -12.7%[46 µM] | B: ? | C: ? | D: 39.8µM* | E: ? | F: ?

Given with values under each structure: part of the list above.
Sequence of screens: Lamin A splicing, miR-21 FLuc, Sfp inh, G9a inh, ALDH1A1 inh, KDM4E inh
CCCCCSc1cc(OC)c(CCN)cc1OC
→ -5.5%, 15.6%, ?, -13.1%[59 µM], -12.8%, 5.3%
O=c1[nH]c(O)c(/C=C2/C=CC(c3cc(Cl)ccc3Cl)=N2)c(=O)[nH]1
→ nt, 4.4%, -19.8%, 50.1µM*, nt, 1.9%

Carrying on.
Key to letters: A = Lamin A splicing; B = miR-21 FLuc; C = Sfp inh; D = G9a inh; E = ALDH1A1 inh; F = KDM4E inh
molecule: COc1ccc(-c2cc(-c3ccccc3)[n+](C)c(-c3ccccc3)c2)cc1
  A: ? | B: ? | C: 23.8% | D: 8.3% | E: ? | F: ?
molecule: CC(C)Oc1cc(-n2nc(C(C)(C)C)oc2=O)c(Cl)cc1Cl
  A: nt | B: nt | C: 1.7% | D: nt | E: nt | F: nt
molecule: Cc1c(O)c(=O)ccn1C
  A: ? | B: -4.8% | C: 56.2µM* | D: 1.58µM*! | E: -2.3% | F: 7.94µM*
molecule: COc1cc2c(cc1OC)[C@@]13CCN4CC5=CCO[C@H](CC(=O)O)[C@@H]([C@H]1N2)[C@H]5C[C@H]43
  A: nt | B: nt | C: nt | D: nt | E: 17.1%[13.5 µM] | F: nt
molecule: Nc1ccccc1N=Cc1c(O)n(CCC2=CCCCC2)c(=O)[nH]c1=O
  A: -4.0% | B: -54.0% | C: 13.9% | D: 13.1% | E: 2.82µM* | F: ?
molecule: C[C@@H]1C[C@@H]2[C@H]([C@H]3C=C(COC(=O)c4ccccc4)[C@@H](O)[C@]4(O)[C@@H](O)C(OC(=O)c5ccccc5)=C[C@@]14C3=O)C2(C)C
  A: nt | B: nt | C: 10.4% | D: nt | E: nt | F: nt
molecule: O=C1C2CCCN2C(c2cccnc2)N1c1nccs1 (stereo unspecified)
  A: 6.3% | B: -0.6% | C: -6.7% | D: 12.6µM* | E: 12.5% | F: 6.9%
molecule: c1cncc(C2CCCCN2Cc2ccc3c(c2)OCO3)c1 (stereo unspecified)
  A: -0.8% | B: -23.4% | C: -0.7% | D: 79.4µM* | E: 14.9% | F: -2.4%
molecule: CN1CCC[C@H]1c1cccnc1
  A: -19.9% | B: nt | C: 15.0% | D: 14.1µM*! | E: 6.7% | F: -5.4%
molecule: Clc1cccc(CN2CCCCC2c2cccnc2)c1 (stereo unspecified)
  A: -0.4% | B: -0.5% | C: 50.1µM* | D: 56.2µM* | E: ? | F: ?
molecule: O=C1C2CCCN2C(c2cccnc2)N1c1ccc(Cl)cc1 (stereo unspecified)
  A: ? | B: -2.3% | C: 12.3% | D: -25.2% | E: ? | F: -9.9%
molecule: COc1ccc2c(c1)c(CCN1CCOCC1)c(C)n2C(=O)c1cccc(Cl)c1Cl
  A: nt | B: nt | C: ? | D: ? | E: -9.8% | F: 0.6%
molecule: Cc1ccc2nc3c(cc2c1)CC1(C(=O)N(C)C(=O)N(C)C1=O)C1CCCCN31 (stereo unspecified)
  A: 1.5% | B: -29.7% | C: ? | D: -49.9%[12.7 µM] | E: ? | F: ?
molecule: CN1C(=O)N(C)C(=O)C2(Cc3cc(N)ccc3N3CCN(c4ccccc4F)CC32)C1=O (stereo unspecified)
  A: -3.5% | B: -9.3% | C: 9.4% | D: 28.2µM* | E: ? | F: ?
molecule: CN1C(=O)N(C)C(=O)C2(Cc3cc(NC(=O)c4ccccc4)ccc3N3CCCC32)C1=O (stereo unspecified)
  A: nt | B: -7.2% | C: -3.5% | D: 31.6µM* | E: nt | F: nt
molecule: CN1C(=O)N(C)C(=O)C2(Cc3cc(NC(=O)c4ccccc4Cl)ccc3N3CCCC32)C1=O (stereo unspecified)
  A: nt | B: -7.3% | C: -18.4% | D: nt | E: nt | F: nt
molecule: CCN1C(=O)N(CC)C(=O)C2(Cc3ccccc3N3CCN(c4ccccc4)CC32)C1=O (stereo unspecified)
  A: nt | B: -34.5% | C: 70.8µM* | D: 2µM* | E: nt | F: -21.2%
molecule: CN1CCN2c3ccc(N)cc3CC3(C(=O)NC(=O)NC3=O)C2C1 (stereo unspecified)
  A: nt | B: 4.0% | C: 22.4µM* | D: 17.8µM* | E: nt | F: 3.98µM*
